Data as given in patent US6833443B1, “Gymnemic acid derivatives, process for the preparation thereof and use thereof as medicine” (Guilin Jiqi Pharmaceutical Co., Ltd., priority 1999, dated 2004).

Tested on: hyperlipidemia rat
Experiment: Effect of compound F on triglycerides and cholesterol in serum of hyperlipidemia rat
Assay type: in vivo
Conditions: dose 100 mg/kg
Protocol: Effect of compound F on the content of triglycerides and cholesterol in the serum of hyperlipidemia rat.
Male SD rats weighing 130-170 g were used. The normal group was given general feedstuff, and the other groups were given high-fat (1% cholesterol, 10% pig oil, 0.3% cholic acid, 0.2% methylthio imidazole and 88.5% normal feedstuff are made stuff by oneself). After the feedstuff is run for 14 days and the rats were forbidden to eat for 12 hours, the content of triglycerides and cholesterol in rat's serum was measured. Then, the rats were grouped randomly according to blood lipid value. The experiment group was given compound F (50, 100, 200 mg/kg.), the positive-control group was orally given clofibrate (100 mg/kg), and the control group was given distilled water. The volume of administration was, 10 ml/kg, lasting 10 days. Each group was given high-fat feedstuff in the first 5 days of giving drugs, and then general feedstuff in the next 5 days. Fasting of 11 hours is conducted before the last time of giving drugs. After giving drugs for 1 hour, blood was taken and the content of ester and cholesterol in the blood serum was measured.

CCOC(=O)C(C)(C)Oc1ccc(Cl)cc1 [clofibrate]
Total cholesterin, after administration (10 days): 2.15 ± 0.76 mmol/L | triglycerides, after administration (10 days): 2.72 ± 0.74 mmol/L | Total cholesterin, before administration (baseline): 4.33 ± 0.51 mmol/L | triglycerides, before administration (baseline): 2.51 ± 0.77 mmol/L
